For one assay, the target named is FAP (Homo sapiens, UniProt Q12884). In words: Enzymatic activity of purified FAP, chromogenic substrate H-Ala-Pro-pNA. Format: biochemical. Conditions: read-out: IC50 FAP (pH 7.4); pH 7.4, 25° C., 10 min pre-incubation with enzyme.
For another assay, the target named is DPP IV (Homo sapiens, UniProt P27487). Description: DPP IV inhibition (Table 1). The class given is biochemical. The following applies: read-out: IC50 DPP IV (pH 8.0).

Chains of the proteins cited; added tags and fusions are not shown.
UniProt Q12884, whole entry: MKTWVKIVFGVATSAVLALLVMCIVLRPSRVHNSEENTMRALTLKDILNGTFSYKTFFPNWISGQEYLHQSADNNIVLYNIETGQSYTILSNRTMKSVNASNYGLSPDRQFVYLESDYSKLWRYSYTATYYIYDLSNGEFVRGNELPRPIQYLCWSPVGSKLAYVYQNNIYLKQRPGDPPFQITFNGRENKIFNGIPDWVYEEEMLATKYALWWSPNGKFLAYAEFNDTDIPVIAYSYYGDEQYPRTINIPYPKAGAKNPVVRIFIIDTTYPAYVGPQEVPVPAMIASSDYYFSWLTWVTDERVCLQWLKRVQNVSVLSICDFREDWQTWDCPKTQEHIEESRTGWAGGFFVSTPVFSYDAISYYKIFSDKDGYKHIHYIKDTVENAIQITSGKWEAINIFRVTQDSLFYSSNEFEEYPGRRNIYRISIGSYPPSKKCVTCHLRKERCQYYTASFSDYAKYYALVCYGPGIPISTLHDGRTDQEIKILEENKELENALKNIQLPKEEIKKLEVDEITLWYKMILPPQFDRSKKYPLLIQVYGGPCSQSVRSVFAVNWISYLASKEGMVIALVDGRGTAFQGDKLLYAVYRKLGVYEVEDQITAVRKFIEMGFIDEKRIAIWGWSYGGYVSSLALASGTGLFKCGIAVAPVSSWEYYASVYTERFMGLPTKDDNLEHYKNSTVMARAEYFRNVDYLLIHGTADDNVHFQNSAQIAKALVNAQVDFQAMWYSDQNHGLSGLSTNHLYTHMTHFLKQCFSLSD
UniProt P27487, whole entry: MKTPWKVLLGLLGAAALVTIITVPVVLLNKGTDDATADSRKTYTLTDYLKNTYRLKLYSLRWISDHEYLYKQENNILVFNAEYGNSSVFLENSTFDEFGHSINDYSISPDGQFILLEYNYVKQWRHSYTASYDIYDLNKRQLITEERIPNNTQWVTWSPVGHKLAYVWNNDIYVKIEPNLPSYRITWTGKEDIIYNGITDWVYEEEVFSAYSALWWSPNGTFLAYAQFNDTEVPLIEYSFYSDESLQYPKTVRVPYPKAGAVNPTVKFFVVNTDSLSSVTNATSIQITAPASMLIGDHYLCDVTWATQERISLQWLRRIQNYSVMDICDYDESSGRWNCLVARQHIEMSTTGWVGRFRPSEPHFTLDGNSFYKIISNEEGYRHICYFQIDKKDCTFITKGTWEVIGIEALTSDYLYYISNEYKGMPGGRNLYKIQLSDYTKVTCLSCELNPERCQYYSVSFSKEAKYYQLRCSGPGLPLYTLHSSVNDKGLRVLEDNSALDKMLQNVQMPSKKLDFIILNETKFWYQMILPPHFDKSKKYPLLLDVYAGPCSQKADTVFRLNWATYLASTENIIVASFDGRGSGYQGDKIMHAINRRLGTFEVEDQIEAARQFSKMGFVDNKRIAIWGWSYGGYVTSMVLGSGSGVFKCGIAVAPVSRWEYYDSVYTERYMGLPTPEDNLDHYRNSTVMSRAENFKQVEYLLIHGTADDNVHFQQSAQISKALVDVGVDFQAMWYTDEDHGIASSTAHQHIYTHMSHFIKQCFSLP

Drawing on US20120077779A1, “Inhibitors of Fibroblast Activation Protein Alpha” (Trustees of Tufts College, priority 2005, published 2012), this text covers IC50 for 13 compounds.

Usually IC50 stands for the concentration needed to halve the response being measured.

For the compound `O=C(CNc1ccccc1)N1CCC[C@H]1B(O)O`, the IC50 came out at 1900 nM on FAP and 18000 nM on DPP IV.

Take `O=C(CNC1CCCCC1)N1CCC[C@H]1B(O)O`: the half-inhibitory concentration (IC50) at DPP IV was determined as 940 nM. On to `O=C(NCC(=O)N1CCC[C@H]1B(O)O)c1ccc2ccccc2c1`, for which, on FAP, the IC50 is 10 nM. The same measure, in the same setting: under `O=C(NCC(=O)N1CCC[C@H]1B(O)O)NCc1ccccc1` stands 7.2 nM.

As for `O=C(CNCc1ccccc1)N1CCC[C@H]1B(O)O`, the values for the IC50 at FAP and on DPP IV were 15000 nM and 69000 nM, respectively.

As for `O=C(CCc1ccccc1)NCC(=O)N1CCC[C@H]1B(O)O`, on FAP, the IC50 was found to be 44 nM. As for `NS(=O)(=O)c1ccc(C(=O)NCC(=O)N2CCC[C@H]2B(O)O)cc1`, the IC50 on FAP amounted to 20 nM. For `O=C(CNS(=O)(=O)c1ccccc1)N1CCC[C@H]1B(O)O`, the IC50 on FAP worked out at 34 nM. For the compound `O=C(NCC(=O)N1CCC[C@H]1B(O)O)c1cnccn1`, at FAP, the IC50 amounted to 82 nM. In the case of `CC(C)(C)NCC(=O)N1CCC[C@H]1B(O)O`, the IC50 on FAP was 400 nM; at DPP IV it was 43 nM. As to `O=C(NCC(=O)N1CCC[C@H]1B(O)O)OCc1ccccc1`, the IC50 at FAP was 24 nM; on DPP IV, greater than 32000 nM. With `O=C1c2ccccc2C(=O)N1CC(=O)N1CCC[C@H]1B(O)O`, the IC50 on FAP was 150 nM. As for `O=C(NCC(=O)N1CCC[C@H]1B(O)O)Nc1ccccc1`, the IC50 at FAP worked out at 7.1 nM.
